Experimental findings from PubChem BioAssay AID1481 (The Scripps Research Institute Molecular Screening Center, 2009) are described below.

By UniProt entry, the sequences of proteins in these tests, tags left out.
UniProt P55072, whole entry, looked up: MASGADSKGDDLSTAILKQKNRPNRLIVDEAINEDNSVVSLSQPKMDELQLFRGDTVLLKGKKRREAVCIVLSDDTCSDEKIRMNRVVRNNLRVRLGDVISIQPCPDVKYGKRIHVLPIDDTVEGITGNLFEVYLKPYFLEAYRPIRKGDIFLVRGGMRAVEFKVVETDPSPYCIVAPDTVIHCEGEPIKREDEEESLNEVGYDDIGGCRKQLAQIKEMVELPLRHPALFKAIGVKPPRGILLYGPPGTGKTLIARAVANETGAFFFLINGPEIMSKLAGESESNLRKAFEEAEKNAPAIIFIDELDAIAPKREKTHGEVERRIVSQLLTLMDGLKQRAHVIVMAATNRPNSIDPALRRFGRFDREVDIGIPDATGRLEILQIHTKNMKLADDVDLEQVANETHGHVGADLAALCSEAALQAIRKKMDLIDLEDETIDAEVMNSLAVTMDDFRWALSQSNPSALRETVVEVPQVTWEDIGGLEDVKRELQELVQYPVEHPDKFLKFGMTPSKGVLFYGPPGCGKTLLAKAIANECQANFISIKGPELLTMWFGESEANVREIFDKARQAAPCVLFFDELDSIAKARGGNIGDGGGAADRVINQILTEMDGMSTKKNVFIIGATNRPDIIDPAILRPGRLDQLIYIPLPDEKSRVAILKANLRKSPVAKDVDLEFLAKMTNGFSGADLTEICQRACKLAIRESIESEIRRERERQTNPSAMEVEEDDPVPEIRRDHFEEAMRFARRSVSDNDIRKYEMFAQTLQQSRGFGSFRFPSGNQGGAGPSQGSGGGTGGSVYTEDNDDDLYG

Each structure is given as a SMILES string. Several values for one entry are separate records, joined by “and”; a condition that tells them apart may be missing. Identical values can stand only once. The list shows a part of the results, in another mix than the full data. Activity calls are given as the source filed them. No stated cut-off is given here; in the data, active means inhibition above about 15%; inactive means the rest.

The target of the experiment is Transitional endoplasmic reticulum ATPase (Homo sapiens) (UniProt P55072). Kind of experiment: inhibitors of human p97 ATPase, primary screen, biochemical (AID 1481).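 Further: 0% = DMSO vehicle and 100% = wells lacking enzyme.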 To be noted: recombinant p97 ATPase, Kinase-Glo ATP luminescence, 3 h; at 8 µM; active compounds read high. In general terms: In Kinase-Glo more light means more ATP remaining.
Consider `COc1ccc(C2=NCC(CBr)S2)cc1` (configuration not stated), for which the inhibition – broadly, the drop in the measured response relative to a control, in per cent – was inactive: 1.44%. The same measure for `Cc1ccc(NP(=O)(Oc2ccccc2)Oc2ccccc2)nc1`: inactive: -4.33%; for `CCc1nc2c(n1)c1c(non1O)c1c2no[n+]1[O-]`: active: 16.5%. The same measure for `O=[N+]([O-])c1cc([N+](=O)[O-])c(CCNc2ccccc2)c([N+](=O)[O-])c1`: inactive: -0.07%.

`O=[N+]([O-])c1cccc2n[nH]nc12`: the inhibition is inactive: -5.59%. The value for `CC(=O)N1C2C3N(C(C)=O)C1C1N(C(C)=O)C(C(N1C(C)=O)N3C(C)=O)N2C(C)=O` was inactive: -3.9%; that for `O=[N+]([O-])c1ncn(CCn2ncnc2[N+](=O)[O-])n1` was inactive: 3.24%; that for `CC(C)(C)C(=O)NC(Sc1ccncn1)C(Cl)(Cl)Cl` (configuration not stated) was inactive: 4.05%. The value for `O=C(O)CNc1ccc([As](=O)(O)O)cc1` was inactive: 1.65%; that for `O=[N+]([O-])c1cccc(NC2=NCC(CBr)S2)c1` (configuration not stated) was inactive: -0.79%.

In the case of `O=C(Nc1cc([As](=O)(O)O)ccc1O)c1ccccc1`, the inhibition was inactive: 9.07%. The value for `Nc1cccc2ccc([As](=O)(O)O)cc12` was inactive: 6.39%. As to `CCN(N=Nc1nonc1N)c1nonc1N`, the inhibition was inactive: 0.21%. The value for `O=P(Nc1nc2ccc(Cl)cc2s1)(c1ccccc1)c1ccccc1` was inactive: 4.54%; that for `O=C(O)c1ccccc1[As](=O)(O)O` was inactive: 11.6%. The value for `CC(=O)Nc1ccc([As](=O)(O)O)cc1` was inactive: 4.54%. Consider `CCOP(=O)(Nc1ccccc1)OCC`, for which the inhibition was inactive: 4.65% and inactive: 4.57%. Consider `Cc1cc(SC(NC(=O)c2ccc(F)cc2)C(Cl)(Cl)Cl)ncn1` (configuration not stated), for which the inhibition is inactive: 4.91%. As to `Cc1ccc(NP(=O)(Oc2ccccc2F)Oc2ccccc2F)nc1`, the inhibition is inactive: -4.62%. The same measure for `Oc1ccccc1CNc1ccccn1`: inactive: 2.59%. The same measure for `Cc1c2non([O-])c-2c(C)[n+](=O)[n+]1[O-]`: inactive: -2.56%; for `O=C(NC(Sc1ccncn1)C(Cl)(Cl)Cl)c1ccccc1` (configuration not stated): inactive: -0.51%. In the case of `CC(C)CC(=O)NC(Sc1ccc(Cl)cc1)C(Cl)(Cl)Cl` (configuration not stated), the inhibition was inactive: -0.04%. The value for `Nc1cc(N)c2nonc2c1[N+](=O)[O-]` was inactive: 1.35%; that for `Cc1ccc(N/C(=N/P(=O)(N2CCOCC2)N2CCOCC2)N2CCOCC2)cc1` was inactive: 3.21%; that for `NC(=O)c1cc([N+](=O)[O-])cc([N+](=O)[O-])c1N` was inactive: 2.11%. For the compound `Clc1ccc(Cl)c(NC2=NCC(CBr)S2)c1` (configuration not stated), the inhibition was inactive: 1.32%. The same measure for `CN1CCCC(OC(=O)C(c2ccccc2)c2ccccc2)C1` (configuration not stated): inactive: 3.31%; for `COc1ccccc1OP(=O)(Nc1ccc(C)cn1)Oc1ccccc1OC`: inactive: 2.47%; for `Cc1ccc(OP(=O)(Nc2nccs2)Oc2ccc(C)cc2)cc1`: inactive: -4.14%.

`CC(=O)Nc1ccc([As](=O)(O)O)c(O)c1`: the inhibition is inactive: 6.3%. For the compound `CC(=O)Nc1ccc(Oc2c([N+](=O)[O-])cc([N+](=O)[O-])cc2[N+](=O)[O-])cc1`, the inhibition was inactive: 0.3%. The same measure for `O=P1(Nc2nc3ccc(Cl)cc3s2)COc2ccccc2O1` (configuration not stated): inactive: -3.35%; for `CCOc1ccc(C2=NCC(CBr)S2)cc1` (configuration not stated): inactive: -5.96%. The same measure for `CC(C)(C)C(=O)NC(Sc1ccccc1)C(Cl)(Cl)Cl` (configuration not stated): inactive: 3.35%; for `CCC(=O)N1C2C3N(C(=O)CC)C1C1N(C(=O)CC)C(C(N1C(=O)CC)N3C(=O)CC)N2C(=O)CC`: inactive: 1.2%. The same measure for `COC(=O)c1cc2c(s1)N=C(c1ccccc1)N(C)P2(=O)N1CCOCC1` (configuration not stated): inactive: 3.61%. In the case of `CC(=O)NC(SC(=S)N(CC(C)C)CC(C)C)C(Cl)(Cl)Cl` (configuration not stated), the inhibition was inactive: -6.97%. The value for `Cc1ccc(OP(=O)(Nc2ccccn2)Oc2ccc(C)cc2)cc1` was inactive: 2.45%; that for `Cc1ccccc1OP(=O)(Nc1ccccn1)Oc1ccccc1C` was inactive: -3.42%; that for `CN(C)C(=O)Oc1noc2ccccc12` was inactive: 8.64%. As for `O=c1c2cc([N+](=O)[O-])ccc2[nH]c2c([N+](=O)[O-])cc([N+](=O)[O-])cc12`, the inhibition is inactive: 8.48%.

`c1ccc(-c2nn[nH]n2)c(-c2nn[nH]n2)c1`: the inhibition is inactive: 4.25%. The same measure for `Cc1ccc(NP(=O)(Oc2cccc(C)c2)Oc2cccc(C)c2)nc1`: inactive: -2.1%; for `CCNC(=S)/N=C(\N)N[N+](=O)[O-]`: inactive: 2.34%.

Turning to `O=C(NC1CCS(=O)(=O)C1)NP(=S)(Oc1ccccc1)Oc1ccccc1` (configuration not stated), the inhibition was inactive: -1.47%. For `O=[As](O)(c1ccccc1)c1ccc(O)cc1`, the inhibition is inactive: -4.66%.

On to `CC(=O)NC(SC(=S)N(C)C)C(Cl)(Cl)Cl` (configuration not stated), for which the inhibition was inactive: 7.39%. The value for `O=[N+]([O-])c1ncn(CCn2cnc([N+](=O)[O-])n2)n1` was inactive: 2.51%; that for `O=C(OC1CN2CCC1CC2)c1cccc(Cl)c1` (configuration not stated) was inactive: 0.64%; that for `Nc1ccc([As](=O)(O)c2ccc([N+](=O)[O-])cc2)cc1` was inactive: 10.4%. `C(Cc1nn[nH]n1)Cc1nn[nH]n1`: the inhibition was inactive: 3.87%.

`O=P(Nc1ccccn1)(c1ccc(Br)cc1)c1ccc(Br)cc1`: the inhibition was inactive: -1.26%.

Turning to `O=P(Nc1nc2ccccc2s1)(c1ccccc1)c1ccccc1`, the inhibition is inactive: -5.2%.

As to `CC(C)C(=O)NC(Sc1ccccc1)C(Cl)(Cl)Cl` (configuration not stated), the inhibition is inactive: 0.8%. The value for `O=P(Nc1nccs1)(c1ccccc1)c1ccccc1` was inactive: 2.26%; that for `c1nnnn1CCn1cnnn1` was inactive: 2.72%.
